Test results published in ChEMBL document CHEMBL5104100, “Synthesis and Preclinical Characterization of LY3154885, a Human Dopamine D1 Receptor Positive Allosteric Modulator with an Improved Nonclinical Drug-Drug Interaction Risk Profile” (J Med Chem, 2022).

Chains of the proteins cited; added tags and fusions are not shown.
UniProt Q01959, whole entry: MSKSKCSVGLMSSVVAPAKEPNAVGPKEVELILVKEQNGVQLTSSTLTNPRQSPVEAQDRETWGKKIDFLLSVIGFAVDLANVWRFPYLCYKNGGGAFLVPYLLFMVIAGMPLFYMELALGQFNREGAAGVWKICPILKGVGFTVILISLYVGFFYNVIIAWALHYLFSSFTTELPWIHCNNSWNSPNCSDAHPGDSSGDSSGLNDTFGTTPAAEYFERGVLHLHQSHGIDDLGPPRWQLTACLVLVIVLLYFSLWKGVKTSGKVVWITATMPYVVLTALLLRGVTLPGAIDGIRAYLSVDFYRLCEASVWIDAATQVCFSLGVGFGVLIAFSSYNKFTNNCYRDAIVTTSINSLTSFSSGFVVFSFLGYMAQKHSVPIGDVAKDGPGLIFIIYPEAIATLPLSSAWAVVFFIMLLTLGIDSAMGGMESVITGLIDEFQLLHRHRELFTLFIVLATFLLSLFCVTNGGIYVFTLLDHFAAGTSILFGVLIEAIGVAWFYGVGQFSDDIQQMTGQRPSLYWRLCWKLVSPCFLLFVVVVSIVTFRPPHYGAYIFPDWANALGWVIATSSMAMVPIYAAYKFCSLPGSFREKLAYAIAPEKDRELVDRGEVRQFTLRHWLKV

How the values were obtained:
[1] = molecular target: Sodium-dependent dopamine transporter (Homo sapiens) (UniProt Q01959); test: Inhibition of dopamine transporter (unknown origin) at 10 uM relative to control
[2] = molecular target: Sodium-dependent dopamine transporter (Homo sapiens) (UniProt Q01959); test: Inhibition of dopamine transporter (unknown origin) at 1 uM relative to control

inhibition [1]: 62%
inhibition [2]: 23%
SMILES: C[C@H]1c2cccc(-c3cnn(C)c3)c2C[C@H](CO)N1C(=O)Cc1c(Cl)cccc1Cl
